Measured values published in US4596811A, “Heterocyclic compounds, a process for their production and medicaments containing these compounds” (Ludwig Heumann & Co., GmbH, priority 1982, dated 1986).

Sequences of proteins named here, by UniProt entry; tags and fusion partners are left off.
UniProt P47747, whole entry: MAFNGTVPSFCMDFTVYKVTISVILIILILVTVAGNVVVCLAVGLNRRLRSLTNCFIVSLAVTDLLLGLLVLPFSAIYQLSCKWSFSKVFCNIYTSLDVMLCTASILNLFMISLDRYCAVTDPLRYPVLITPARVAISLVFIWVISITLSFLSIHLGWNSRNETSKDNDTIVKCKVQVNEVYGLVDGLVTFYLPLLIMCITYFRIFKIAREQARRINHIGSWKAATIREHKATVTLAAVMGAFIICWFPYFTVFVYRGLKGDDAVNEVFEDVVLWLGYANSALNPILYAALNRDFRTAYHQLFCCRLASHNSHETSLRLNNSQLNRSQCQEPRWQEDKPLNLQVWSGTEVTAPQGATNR

Target: T1, histamine-H2 receptors (isolated atrium) (Cavia porcellus, UniProt P47747)
T1 construct: in vitro on the isolated atrium of guinea pigs; from tissue; host or cells: isolated guinea pig atrium
Assay: H2-antagonistic activity, pA2-values in vitro on the isolated atrium of guinea pigs
Format: cell-based
Settings: isolated guinea pig atrium, H2 antagonism
From the text: An accepted method for determining H2-antagonistic activity is to determine the pA2-values in vitro on the isolated atrium of guinea pigs (cf. Ariens, Molecular Pharmacology, Vol. 1, Academic Press, New York, 1964).

Work on `CN/C(=N/CCSCc1nc[nH]c1C)NC#N` [Cimetidine, reference compound] yielded a Kb of 501 nM.
